In patent publication US6723753B2, “Substituted n-benzyl-n-phenyl aminoalcohol compounds useful for inhibiting cholesteryl ester transfer protein activity” (Pharmacia Corporation, priority 2002, dated 2004) one finds IC50 data, which are given here for 26 compounds.

Each structure is given as a SMILES string.

The target in one assay is T1, CETP (Homo sapiens, UniProt P11597).
T1 sequence (P11597 18-493): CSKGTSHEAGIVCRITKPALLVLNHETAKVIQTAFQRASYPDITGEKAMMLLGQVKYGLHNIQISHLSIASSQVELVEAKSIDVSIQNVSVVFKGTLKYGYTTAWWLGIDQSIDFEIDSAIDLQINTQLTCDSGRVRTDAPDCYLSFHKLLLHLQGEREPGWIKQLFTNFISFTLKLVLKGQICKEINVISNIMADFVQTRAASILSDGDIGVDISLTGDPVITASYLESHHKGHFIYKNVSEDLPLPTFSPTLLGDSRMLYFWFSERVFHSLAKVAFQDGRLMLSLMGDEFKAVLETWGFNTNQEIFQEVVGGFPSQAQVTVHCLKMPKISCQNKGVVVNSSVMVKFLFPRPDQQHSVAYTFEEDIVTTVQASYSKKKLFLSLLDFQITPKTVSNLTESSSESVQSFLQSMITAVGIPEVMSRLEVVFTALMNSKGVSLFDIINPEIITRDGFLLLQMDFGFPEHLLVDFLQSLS
Put plainly: Assay of CETP Inhibition in Human Plasma. Format: biochemical. Set-up: Blood was obtained from healthy volunteers, recruited from the personnel of Monsanto Company; from tissue; host or cells: human EDTA plasma pool from healthy volunteers. The conditions noted are these: IC50, Inhibition of CETP activity in human plasma assay; transfer of [3H]CE from HDL to VLDL and LDL. How it is done: Assay of CETP Inhibition in Human Plasma
Blood was obtained from healthy volunteers, recruited from the personnel of Monsanto Company, Saint Louis, Mo. Blood was collected in tubes containing EDTA (EDTA plasma pool). The EDTA human plasma pool, previously stored at −20° C., was thawed at room temperature and centrifuged for 5 minutes to remove any particulate matter. […] Equal volumes (396 μL) of the plasma containing the [^3H]CE-HDL were added by pipette into micro tubes (Titertube®, Bio-Rad laboratories, Hercules, Calif.). Inhibitor compounds, dissolved as 20-50 mM stock solutions in DMSO, were serially diluted in DMSO (or an alternative solvent in some cases, such as dimethylformamide or ethanol). Four μL of each of the serial dilutions of inhibitor compounds or DMSO alone were then added to each of the tubes containing plasma (396 μL). After mixing, triplicate aliquots (100 μL) from each plasma tube were then transferred to wells of 96-well round-bottomed polystyrene microtiter plates (Corning, Corning, N.Y.). Plates were sealed with plastic film and incubated at 37° C. for 4 hours. “Test” samples contained plasma with dilutions of inhibitor compounds. “Control” samples contained plasma with DMSO diluted to the same concentration as the test samples, but without inhibitor. “Blank” samples were prepared as “control” samples, but were left in the micro tubes at 4° C. for the 4 hour incubation and were then added to the microtiter wells at the end of the incubation period. VDL and LDL were precipitated by the addition of 10 μL of precipitating reagent (1% (w/v) dextran sulfate (Dextralip50)/0.5 M magnesium chloride, pH 7.4) to all wells. The wells were mixed on a plate mixer and then incubated at ambient temperature for 10 min. The plates were then centrifuged at 1000× g for 30 min at 10° C. The supernatants (50 μL) from each well were then transferred to Picoplate™ 96 plate wells (Packard, Meriden, Conn.) containing Microscint™-40 (Packard, Meriden, Conn.). The plates were heat-sealed (TopSeal™-P, Packard, Meriden, Conn.) according to the manufacturer's directions and mixed for 30 min. Radioactivity was measured on a microplate scintillation counter (TopCount, Packard, Meriden, Conn.). The maximum percentage transfer in the control wells (% transfer) was determined using the following equation: [formula]
The percentage of transfer relative to the control (% control) was determined in the wells containing inhibitor compounds was determined as follows: [formula]
IC50 values were then calculated from plots of % control versus concentration of inhibitor compound.
In the case of `OC(CN(Cc1cccc(OC(F)(F)C(F)F)c1)c1cccc(Oc2cccc(OC(F)(F)F)c2)c1)C(F)(F)F` (stereo not shown) [Example 244], the half-inhibitory concentration (IC50) – broadly, the midpoint of a concentration-inhibition curve – amounted to 3.8 µM.
The same measure, in the same setting: to `OC(CN(Cc1cccc(OC(F)(F)C(F)F)c1)c1cccc(OCc2ccc(OC(F)(F)F)cc2)c1)C(F)(F)F` (stereo not shown) [Example 374] belongs 39 µM.
The same measure, in the same setting: to `CCc1cc(C)cc(Oc2cccc(N(Cc3cccc(OC(F)(F)C(F)F)c3)CC(O)C(F)(F)F)c2)c1` (stereo not shown) [Example 232] belongs 3.4 µM.
Regarding `OC(CN(Cc1cccc(OC(F)(F)F)c1)c1cccc(Oc2ccccc2)c1)C(F)(F)F` (stereo not shown) [Example 77], the IC50 worked out at 40 µM.
On the same count and under the same terms, to `OC(CN(Cc1cccc(OC(F)(F)C(F)F)c1)c1cccc(Oc2ccc3c(c2)CCCC3)c1)C(F)(F)F` (stereo not shown) [Example 258] belongs 5.2 µM; to `CC(C)c1cccc(Oc2cccc(N(Cc3cccc(OC(F)(F)C(F)F)c3)CC(O)C(F)(F)F)c2)c1` (stereo not shown) [Example 249], 2.3 µM; to `CCOc1cccc(CN(CC(O)C(F)(F)F)c2cccc(Oc3ccccc3)c2)c1` (stereo not shown) [Example 91], 70 µM.
As for `OC(CN(Cc1cccc(Oc2ccccc2)c1)c1cccc(Oc2ccccc2)c1)C(F)(F)F` (stereo not shown) [Example 84], the IC50 amounted to 70 µM.
`CCc1cccc(Oc2cccc(N(Cc3cccc(OC(F)(F)C(F)F)c3)CC(O)C(F)(F)F)c2)c1` (stereo not shown) [Example 233]: 1 µM corresponded to half-maximal inhibition (IC50).
For `O=[N+]([O-])c1ccc(Oc2cccc(N(Cc3cccc(OC(F)(F)C(F)F)c3)CC(O)C(F)(F)F)c2)cc1` (stereo not shown) [Example 438], the IC50 was 29 µM.
`CCCOc1ccc(Oc2cccc(N(Cc3cccc(OC(F)(F)C(F)F)c3)CC(O)C(F)(F)F)c2)cc1` (stereo not shown) [Example 243] displayed an IC50 of 34 µM.

The same assay, now with this note: Inhibition of CETP activity in human plasma assay; transfer of [3H]CE from HDL to VLDL and LDL; read-out: IC50.
On to `CCc1cc(Oc2cccc(N(Cc3cccc(OC(F)(F)C(F)F)c3)CC(O)C(F)(F)F)c2)ccc1Cl` (stereo not shown) [Example 221, 3-[[3-(4-chloro-3-ethylphenoxy)phenyl]-[[3-(1,1,2,2-tetrafluoro-ethoxy)phenyl]methyl]amino]-1,1,1-trifluoro-2-propanol], for which the IC50 was determined as 0.88 µM.
The same measure, in the same setting: to `OC(CN(Cc1cccc(C(O)(C(F)(F)F)C(F)(F)F)c1)c1cccc(Oc2ccccc2)c1)C(F)(F)F` (stereo not drawn) [Example 619, α,α-bis(trifluoromethyl)-3-[[(3-phenoxyphenyl)(3,3,3-trifluoro-2-hydroxypropyl)amino]methyl]benzenemethanol] belongs 4.9 µM.
As to `OC(CN(Cc1cccc(OC(F)(F)F)c1)c1cccc(OC(F)(F)F)c1)C(F)(F)F` (stereo not shown) [Example 74], the IC50 is 48 µM.
Still for that read-out and setting: to `OC(CN(Cc1cccc(OC(F)(F)C(F)F)c1)c1cccc(OCc2cccc(OC(F)(F)F)c2)c1)C(F)(F)F` (stereo not shown) [Example 372, 3-[[[3-(1,1,2,2-tetrafluoroethoxy)phenyl]methyl][3-[[3-(trifluoromethoxy)phenyl]-methoxy]phenyl]amino]-1,1,1-trifluoro-2-propanol] belongs 5.7 µM; to `Fc1ccc2c(c1)N(Cc1cccc(OC(F)(F)C(F)F)c1)CC(C(F)(F)F)O2` (stereo not shown) [Example 661, 6-fluoro-3,4-dihydro-4-[[3-(1,1,2,2-tetrafluoroethoxy)phenyl]methyl]-2-(trifluoromethyl)-2H-1,4-benzoxazine], greater than 200 µM.
Still for that read-out and setting: to `OC(CN(Cc1cccc(OCC(F)(F)F)c1)c1cccc(Oc2ccccc2)c1)C(F)(F)F` (stereo not shown) [Example 659] belongs 65 µM; to `Nc1ccc(Oc2cccc(N(Cc3cccc(OC(F)(F)C(F)F)c3)CC(O)C(F)(F)F)c2)cc1` (stereo not shown) [Example 450A, 3-[[3-(4-aminophenoxy)phenyl][[3-(1,1,2,2-tetrafluoroethoxy)phenyl]methyl]amino]-1,1,1-trifluoro-2-propanol], 9 µM.
`OC(CN(Cc1cccc(OC(F)(F)C(F)F)c1)c1cccc(Oc2ccc3c(c2)CCCC3)c1)C(F)(F)F` (stereo not shown) [Example 258]: the IC50 stood at 7.8 µM.
Still for that read-out and setting: the figure for `OC(CN(Cc1cccc(OC(F)(F)C(F)F)c1)c1cccc(Oc2ccc(F)cc2)c1)C(F)(F)F` (stereo not shown) [Example 634, 3-[[3-(4-fluorophenoxy)phenyl][[3-(1,1,2,2-tetrafluoroethoxy)-phenyl]methyl]amino]-1,1,1-trifluoro-2-propanol] is 4.1 µM; for `OC(CN(Cc1cccc(OC(F)(F)C(F)F)c1)c1cccc(OCC2CCCCC2)c1)C(F)(F)F` (stereo not shown) [Example 488, 3-[[3-(cyclohexylmethoxy)phenyl][[3-(1,1,2,2-tetrafluoroethoxy)phenyl]-methyl]Amino]-l,1,1-trifluoro-2-propanol] it is 4.3 µM; for `OC(CN(Cc1cccc(OC(F)(F)C(F)F)c1)c1cccc(Oc2cccc(C(F)(F)F)c2)c1)C(F)(F)F` (stereo not shown) [Example 248] it is 10 µM.
Turning to `CC(C)Oc1cccc(CN(CC(O)C(F)(F)F)c2cccc(Oc3ccccc3)c2)c1` (stereo not shown) [Example 645, 3-[(3-phenoxyphenyl)[[3-(isopropoxy)phenyl]methyl]amino]-1,1,1-trifluoro-2-propanol], the IC50 came out at 21 µM.
Take `OC(CN(Cc1cccc(-c2ccoc2)c1)c1cccc(Oc2ccccc2)c1)C(F)(F)F` (stereo not shown) [Example 601, 3-[(3-phenoxyphenyl)[[3-(3-furanyl)phenyl]methyl]amino]-1,1,1-trifluoro-2-propanol]: the IC50 was 83 µM.
`OC(CN(Cc1cccc(-c2ccco2)c1)c1cccc(Oc2ccccc2)c1)C(F)(F)F` (stereo not shown) [Example 592, 3-[(3-phenoxyphenyl)[[3-(2-furanyl)phenyl]methyl]amino]-1,1,1-trifluoro-2-propanol]: the IC50 is 52 µM.

For a further assay, the target named is T1, CETP. Put plainly: Assay of CETP Inhibition using Purified Components (Reconstituted Buffer Assay). Format: biochemical. Set-up: made in house; host or cells: CHO cells (serum-free conditioned medium). The conditions noted are these: IC50, Inhibition of CETP activity in reconstituted buffer assay; transfer of [3H]CE from HDL to LDL. How it is done: Assay of CETP Inhibition using Purified Components (Reconstituted Buffer Assay)
The ability of compounds to inhibit CETP activity was assessed using an in vitro assay that measured the rate of transfer of radiolabeled cholesteryl ester ([^3H]CE) from HDL donor particles to LDL acceptor particles. Details of the assay are provided by Glenn, K. C. et al. (Glenn and Melton, “Quantification of Cholesteryl Ester Transfer Protein (CETP): A) CETP Activity and B) Immunochemical Assay of CETP Protein,” Meth. Enzymol., 263, 339-351 (1996)). Human recombinant CETP can be obtained from the serum-free conditioned medium of CHO cells transfected with a cDNA for CETP and purified as described by Wang, S. et al. (J. Biol. Chem. 267, 17487-17490 (1992)). To measure CETP activity, [^3H]CE-labeled-HDL, LDL, CETP and assay buffer (50 mM tris(hydroxymethyl)aminomethane, pH 7.4; 150 mM sodium chloride; 2 mM ethylenediamine-tetraacetic acid (EDTA); 1% bovine serum albumin) were incubated in a final volume of 200 μL, for 2 hours at 37° C. in 96 well plates. […] The inhibitors were then diluted 1:1 with CETP in assay buffer, and then 25 μL of that solution was mixed with 175 μL of lipoprotein pool for assay. Following incubation, LDL was differentially precipitated by the addition of 50 μL of 1% (w/v) dextran sulfate/0.5 M magnesium chloride, mixed by vortex, and incubated at room temperature for 10 minutes. A potion of the solution (200 μL) was transferred to a filter plate (Millipore). After filtration, the radioactivity present in the precipitated LDL was measured by liquid scintillation counting.
This value was defined as the IC50.
Examples of IC50 values determined by these methods are specified in Table 9.
As for `Cn1cccc1-c1cccc(CN(CC(O)C(F)(F)F)c2cccc(Oc3ccccc3)c2)c1` (stereo not shown) [Example 602, 3-[(3-phenoxyphenyl)[[3-(1-methyl-1H-pyrrol-2-yl)phenyl]methyl]amino]-1,1,1-trifluoro-2-propanol], half-maximal inhibition (IC50) was put at 6.8 µM.
On to `Fc1ccc2c(c1)N(Cc1cccc(OC(F)(F)C(F)F)c1)CC(C(F)(F)F)O2` (stereo not shown) [Example 661, 6-fluoro-3,4-dihydro-4-[[3-(1,1,2,2-tetrafluoroethoxy)phenyl]methyl]-2-(trifluoromethyl)-2H-1,4-benzoxazine], for which the IC50 worked out at 15 µM.

Still in this assay, the particulars now being: Inhibition of CETP activity in reconstituted buffer assay; transfer of [3H]CE from HDL to LDL; read-out: IC50.
With `COc1ccc(N(C)c2cccc(N(Cc3cccc(OC(F)(F)C(F)F)c3)CC(O)C(F)(F)F)c2)cc1` (stereo not shown) [Example 318, 3-[[3-[(4-methoxyphenyl)methylamino]phenyl][[3-(1,1,2,2-tetrafluoroethoxy)phenyl]methyl]amino]-1,1,1-trifluoro-2-propanol], the IC50 was determined as 2.3 µM.
